The term EC50 denotes the concentration needed to bring the measured effect to its halfway point.

Sequences of proteins named here, by UniProt entry; tags and fusion partners are left off. Residues count along the entry.
UniProt P43220, 24-463, species assumed: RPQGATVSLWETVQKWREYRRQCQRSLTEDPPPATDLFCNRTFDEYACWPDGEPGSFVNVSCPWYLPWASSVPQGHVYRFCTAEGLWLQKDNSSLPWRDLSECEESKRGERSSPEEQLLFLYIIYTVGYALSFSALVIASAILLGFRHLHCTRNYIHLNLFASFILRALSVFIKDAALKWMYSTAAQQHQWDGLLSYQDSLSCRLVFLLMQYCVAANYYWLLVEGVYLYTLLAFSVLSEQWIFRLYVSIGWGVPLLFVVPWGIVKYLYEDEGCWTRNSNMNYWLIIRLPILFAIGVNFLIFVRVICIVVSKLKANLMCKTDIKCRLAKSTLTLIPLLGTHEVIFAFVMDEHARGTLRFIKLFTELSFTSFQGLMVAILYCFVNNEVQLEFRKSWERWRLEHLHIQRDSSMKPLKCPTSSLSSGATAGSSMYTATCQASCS

The target of the first assay is GLP-1 receptor (Homo sapiens, UniProt P43220). As to the kind of experiment: GLP-1 adenylate cyclase assay (functional assay, HTRF cell-based cAMP).
Settings: not given
Here is the method: GLP-1 adenylate cyclase assay (Functional Assay). The GLP-1 receptor mediated adenylate cyclase activation can be measured using, for example, an HTRF (Homogeneous Time-Resolved Fluorescence) cell-based cAMP assay kit (CisBio) as known in the art.
In vitro assay of the biological activity of benzamide-containing compounds was conducted with the GLP-1 cyclase assay as described herein.
In vitro assay of the biological activity of constrained alkene compounds was conducted with the GLP-1 cyclase assay as described herein.
On the technique in general: In TR-FRET formats the signal depends on donor and acceptor labels being close together.
For `CC[C@H](C)[C@H](NC(=O)[C@H](Cc1ccccc1)NC(=O)[C@H](CC(C)C)NC(=O)[C@H](CCCNC(=N)N)NC(=O)[C@@H](NC(=O)[C@H](C)NC(=O)[C@H](CCC(=O)O)NC(=O)[C@H](CCC(=O)O)NC(=O)[C@H](CCC(=O)O)NC(=O)c1ccc(NC(=O)c2ccc(NC(=O)[C@H](CC(=O)O)NC(=O)[C@H](CO)NC(=O)[C@@H](NC(=O)[C@H](Cc3ccccc3)NC(=O)[C@@H](NC(=O)CNC(=O)[C@@H]3CCCN3C(=O)[C@@H](C)NC(=O)[C@@H](N)Cc3c[nH]cn3)[C@@H](C)O)[C@@H](C)O)c(OCC(C)C)c2)c(OCC(C)C)c1)C(C)C)C(=O)N[C@@H](CCC(=O)O)C(=O)N[C@@H](Cc1ccccc1)C(=O)N[C@@H](CC(C)C)C(=O)N[C@@H](CCCCN)C(=O)N[C@@H](CC(N)=O)C(N)=O` [Cmpd 14], the half-maximal effective concentration (EC50) is 5.5 nM.

`CC[C@H](C)[C@H](NC(=O)[C@H](Cc1ccccc1)NC(=O)[C@H](CC(C)C)NC(=O)[C@H](CCCNC(=N)N)NC(=O)[C@@H](NC(=O)[C@H](C)NC(=O)[C@H](CCC(=O)O)NC(=O)[C@H](CCC(=O)O)NC(=O)[C@H](CCC(=O)O)NC(=O)c1ccc(NC(=O)c2ccc(NC(=O)c3ccc(NC(=O)[C@@H](NC(=O)CNC(=O)[C@@H]4CCCN4C(=O)[C@@H](C)NC(=O)[C@@H](N)Cc4c[nH]cn4)[C@@H](C)O)c(OCc4ccccc4)c3)c(OCC(C)C)c2)c(OCC(C)C)c1)C(C)C)C(=O)N[C@@H](CCC(=O)O)C(=O)N[C@@H](Cc1ccccc1)C(=O)N[C@@H](CC(C)C)C(=O)N[C@@H](CCCCN)C(=O)N[C@@H](CC(N)=O)C(N)=O` [Cmpd 15] had an EC50 of 277 nM. Same read-out and setting: the value for `CC(C)C[C@H](NC(=O)[C@H](CCC(N)=O)NC(=O)[C@H](CCCCN)NC(=O)[C@H](CO)NC(=O)[C@H](CC(C)C)NC(=O)[C@H](CC(=O)O)NC(=O)[C@H](CO)NC(=O)[C@@H](NC(=O)[C@H](Cc1ccccc1)NC(=O)[C@@H](NC(=O)CNC(=O)[C@@H]1CCCN1C(=O)[C@@H](C)NC(=O)[C@@H](N)Cc1c[nH]cn1)[C@@H](C)O)[C@@H](C)O)C(=O)N[C@@H](CCC(=O)O)C(=O)N[C@@H](CCC(=O)O)C(=O)N[C@@H](CCC(=O)O)C(=O)N[C@@H](C)C(=O)Nc1ccc(C(=O)Nc2ccc(C(=O)Nc3ccc(C(N)=O)cc3OCc3ccccc3)cc2OCc2ccccc2)cc1OC(C)C` [Cmpd 17] was 236 nM. The same measure, in the same setting: the value for `CC[C@H](C)[C@H](NC(=O)[C@H](Cc1ccccc1)NC(=O)[C@H](CC(C)C)NC(=O)[C@H](CCCNC(=N)N)NC(=O)[C@@H](NC(=O)[C@H](C)NC(=O)[C@H](CCC(=O)O)NC(=O)[C@H](CCC(=O)O)NC(=O)[C@H](CCC(=O)O)NC(=O)[C@H](CC(C)C)NC(=O)[C@H](CCC(N)=O)NC(=O)[C@H](CCCCN)NC(=O)[C@H](CO)NC(=O)[C@H](CC(C)C)NC(=O)[C@H](CC(=O)O)NC(=O)[C@H](CO)NC(=O)[C@@H](NC(=O)[C@H](Cc1ccccc1)NC(=O)[C@@H](NC(=O)CNC(=O)[C@@H]1CCCN1C(=O)[C@@H](C)NC(=O)[C@@H](N)Cc1c[nH]cn1)[C@@H](C)O)[C@@H](C)O)C(C)C)C(=O)N[C@H]1CC=CC[C@@H](CC(N)=O)NC(=O)[C@H](CCCCN)NC(=O)[C@H](CC(C)C)NC(=O)[C@H](Cc2ccccc2)NC(=O)C1` [Cmpd 27] was 0.8 nM.

`CC(C)C[C@H](NC(=O)c1ccc(NC(=O)c2ccc(NC(=O)[C@H](CC(C)C)NC(=O)[C@H](CCCNC(=N)N)NC(=O)[C@@H](NC(=O)[C@H](C)NC(=O)[C@H](CCC(=O)O)NC(=O)[C@H](CCC(=O)O)NC(=O)[C@H](CCC(=O)O)NC(=O)[C@H](CC(C)C)NC(=O)[C@H](CCC(N)=O)NC(=O)[C@H](CCCCN)NC(=O)[C@H](CO)NC(=O)[C@H](CC(C)C)NC(=O)[C@H](CC(=O)O)NC(=O)[C@H](CO)NC(=O)[C@@H](NC(=O)[C@H](Cc3ccccc3)NC(=O)[C@@H](NC(=O)CNC(=O)[C@@H]3CCCN3C(=O)[C@@H](C)NC(=O)[C@@H](N)Cc3c[nH]cn3)[C@@H](C)O)[C@@H](C)O)C(C)C)c(OCc3ccccc3)c2)c(OCc2ccccc2)c1)C(=O)N[C@@H](CCCCN)C(=O)N[C@@H](CC(N)=O)C(N)=O` [Cmpd 13] had a 50% effective concentration (EC50) of 1.7 nM.

Staying with this assay, now noted: benzamide-containing compounds, Table 3; read-out: Cyclase GLP-1 EC50 (nm).
Turning to `CC(C)C[C@H](NC(=O)[C@H](CCCNC(=N)N)NC(=O)[C@@H](NC(=O)[C@H](C)NC(=O)[C@H](C)NC(=O)[C@H](C)NC(=O)[C@H](CC(=O)O)NC(=O)[C@H](CO)NC(=O)[C@@H](NC(=O)[C@H](Cc1ccccc1)NC(=O)[C@@H](NC(=O)CNC(=O)[C@@H]1CCCN1C(=O)[C@@H](C)NC(=O)[C@@H](N)Cc1c[nH]cn1)[C@@H](C)O)[C@@H](C)O)C(C)C)C(=O)Nc1ccc(C(=O)Nc2ccc(C(N)=O)cc2OCc2ccccc2)cc1OCc1ccccc1` [Cmpd 16], the EC50 was 136 nM. Take `CC(C)C[C@H](NC(=O)[C@H](CCCNC(=N)N)NC(=O)[C@H](C)NC(=O)[C@H](C)NC(=O)[C@H](C)NC(=O)[C@H](CC(=O)O)NC(=O)[C@H](CO)NC(=O)[C@@H](NC(=O)[C@H](Cc1ccccc1)NC(=O)[C@@H](NC(=O)CNC(=O)[C@@H]1CCCN1C(=O)[C@@H](C)NC(=O)[C@@H](N)Cc1c[nH]cn1)[C@@H](C)O)[C@@H](C)O)C(=O)Nc1ccc(C(=O)Nc2ccc(C(N)=O)cc2OCc2ccccc2)cc1OCc1ccccc1` [Cmpd 18]: the EC50 turned out to be 21 nM.

The assay is the same for the next values; noted with them: constrained alkene compounds, Table 4; read-out: Cyclase GLP-1 EC50 (nm).
As for `CC[C@H](C)[C@H](NC(=O)[C@H](Cc1ccccc1)NC(=O)[C@H](CC(C)C)NC(=O)[C@H](CCCNC(=N)N)NC(=O)[C@@H](NC(=O)[C@H](C)NC(=O)[C@H](CCC(=O)O)NC(=O)[C@H](CCC(=O)O)NC(=O)[C@H](CCC(=O)O)NC(=O)[C@H](CC(C)C)NC(=O)[C@H](CCC(N)=O)NC(=O)[C@H](CCCCN)NC(=O)[C@H](CO)NC(=O)[C@H](CC(C)C)NC(=O)[C@H](CC(=O)O)NC(=O)[C@H](CO)NC(=O)[C@@H](NC(=O)[C@H](Cc1ccccc1)NC(=O)[C@@H](NC(=O)CNC(=O)[C@@H]1CCCN1C(=O)[C@@H](C)NC(=O)[C@@H](N)Cc1c[nH]cn1)[C@@H](C)O)[C@@H](C)O)C(C)C)C(=O)N[C@@H]1CC=CC[C@@H](C(N)=O)NC(=O)[C@H](CCCCN)NC(=O)[C@H](CC(C)C)NC(=O)[C@H](Cc2ccccc2)NC1=O` [Cmpd 24], the concentration giving a half-maximal response (EC50) turned out to be 127 nM. The same measure, in the same setting: the value for `CC[C@H](C)[C@H](NC(=O)[C@H](Cc1ccccc1)NC(=O)[C@H](CC(C)C)NC(=O)[C@H](CCCNC(=N)N)NC(=O)[C@@H](NC(=O)[C@H](C)NC(=O)[C@H](CCC(=O)O)NC(=O)[C@H](CCC(=O)O)NC(=O)[C@H](CCC(=O)O)NC(=O)[C@H](CC(C)C)NC(=O)[C@H](CCC(N)=O)NC(=O)[C@H](CCCCN)NC(=O)[C@H](CO)NC(=O)[C@H](CC(C)C)NC(=O)[C@H](CC(=O)O)NC(=O)[C@H](CO)NC(=O)[C@@H](NC(=O)[C@H](Cc1ccccc1)NC(=O)[C@@H](NC(=O)CNC(=O)[C@@H]1CCCN1C(=O)[C@@H](C)NC(=O)[C@@H](N)Cc1c[nH]cn1)[C@@H](C)O)[C@@H](C)O)C(C)C)C(=O)N[C@H]1C/C=C\CCN([C@@H](CC(N)=O)C(N)=O)C(=O)[C@H](CCCCN)NC(=O)[C@H](CC(C)C)NC(=O)[C@H](Cc2ccccc2)NC(=O)C1` [Cmpd 35] was 35 nM; that for `CC[C@H](C)[C@H](NC(=O)[C@H](Cc1ccccc1)NC(=O)[C@H](CC(C)C)NC(=O)[C@H](CCCNC(=N)N)NC(=O)[C@@H](NC(=O)[C@H](C)NC(=O)[C@H](CCC(=O)O)NC(=O)[C@H](CCC(=O)O)NC(=O)[C@H](CCC(=O)O)NC(=O)[C@H](CC(C)C)NC(=O)[C@H](CCC(N)=O)NC(=O)[C@H](CCCCN)NC(=O)[C@H](CO)NC(=O)[C@H](CC(C)C)NC(=O)[C@H](CC(=O)O)NC(=O)[C@H](CO)NC(=O)[C@@H](NC(=O)[C@H](Cc1ccccc1)NC(=O)[C@@H](NC(=O)CNC(=O)[C@@H]1CCCN1C(=O)[C@@H](C)NC(=O)[C@@H](N)Cc1c[nH]cn1)[C@@H](C)O)[C@@H](C)O)C(C)C)C(=O)N[C@H]1CC=CC[C@@H](CC(N)=O)NC(=O)[C@H](CCCCN)NC(=O)[C@H](CC(C)C)NC(=O)[C@H](Cc2ccccc2)NC1=O` [Cmpd 26] was 35 nM. On the same count and under the same terms, the value for `CC[C@H](C)[C@H](NC(=O)[C@H](Cc1ccccc1)NC(=O)[C@H](CC(C)C)NC(=O)[C@H](CCCNC(=N)N)NC(=O)[C@@H](NC(=O)[C@H](C)NC(=O)[C@H](CCC(=O)O)NC(=O)[C@H](CCC(=O)O)NC(=O)[C@H](CCC(=O)O)NC(=O)[C@H](CC(C)C)NC(=O)[C@H](CCC(N)=O)NC(=O)[C@H](CCCCN)NC(=O)[C@H](CO)NC(=O)[C@H](CC(C)C)NC(=O)[C@H](CC(=O)O)NC(=O)[C@H](CO)NC(=O)[C@@H](NC(=O)[C@H](Cc1ccccc1)NC(=O)[C@@H](NC(=O)CNC(=O)[C@@H]1CCCN1C(=O)[C@@H](C)NC(=O)[C@@H](N)Cc1c[nH]cn1)[C@@H](C)O)[C@@H](C)O)C(C)C)C(=O)N[C@H]1C/C=C/C[C@H](C(N)=O)NC(=O)[C@H](CCCCN)NC(=O)[C@H](CC(C)C)NC(=O)[C@H](Cc2ccccc2)NC1=O` [Cmpd 23] was 133 nM; that for `CC[C@H](C)[C@H](NC(=O)[C@H](Cc1ccccc1)NC(=O)[C@H](CC(C)C)NC(=O)[C@H](CCCNC(=N)N)NC(=O)[C@@H](NC(=O)[C@H](C)NC(=O)[C@H](CCC(=O)O)NC(=O)[C@H](CCC(=O)O)NC(=O)[C@H](CCC(=O)O)NC(=O)[C@H](CC(C)C)NC(=O)[C@H](CCC(N)=O)NC(=O)[C@H](CCCCN)NC(=O)[C@H](CO)NC(=O)[C@H](CC(C)C)NC(=O)[C@H](CC(=O)O)NC(=O)[C@H](CO)NC(=O)[C@@H](NC(=O)[C@H](Cc1ccccc1)NC(=O)[C@@H](NC(=O)CNC(=O)[C@@H]1CCCN1C(=O)[C@@H](C)NC(=O)[C@@H](N)Cc1c[nH]cn1)[C@@H](C)O)[C@@H](C)O)C(C)C)C(=O)NC1CC=CCC(C(N)=O)NC(=O)[C@H](CCCCN)NC(=O)[C@H](CC(C)C)NC(=O)[C@H](Cc2ccccc2)NC1=O` (stereo partly shown) [Cmpd 25] was 131 nM.

The assay is the same for the next values; noted with them: in vitro.
Consider `CC[C@H](C)[C@H](NC(=O)[C@H](Cc1ccccc1)NC(=O)[C@H](CC(C)C)NC(=O)[C@H](CCCNC(=N)N)NC(=O)[C@@H](NC(=O)[C@H](C)NC(=O)[C@H](CCC(=O)O)NC(=O)[C@H](CCC(=O)O)NC(=O)[C@H](CCC(=O)O)NC(=O)[C@H](CC(C)C)NC(=O)[C@H](CCC(N)=O)NC(=O)[C@H](CCCCN)NC(=O)[C@H](CO)NC(=O)[C@H](CC(C)C)NC(=O)[C@H](CC(=O)O)NC(=O)[C@H](CO)NC(=O)[C@@H](NC(=O)[C@H](Cc1ccccc1)NC(=O)[C@@H](NC(=O)CNC(=O)[C@@H]1CCCN1C(=O)[C@@H](C)NC(=O)[C@@H](N)Cc1c[nH]cn1)[C@@H](C)O)[C@@H](C)O)C(C)C)C(=O)N[C@H]1CC=CC[C@@H](CC(N)=O)NC(=O)[C@H](CCCCN)NC(=O)[C@H](CC(C)C)NC(=O)[C@H](Cc2ccccc2)NC(=O)C1` [Cmpd 27], for which the “activity in GLP-1 cyclase assay (in words)” value is on record as “subnanomolar activity”.
